# Measurements from US20050106639A1, “Method for quantification of AKT protein expression” (Ventana Medical Systems, Inc., priority 2000, published 2005).
# How the values were obtained:
# Type in all cases: cell-based
# [1] = system: total AKT (AKT-1 plus AKT-2); assay: Western blot of activated (phosphorylated) total AKT in HER-2/neu over-expressing cells; conditions: SKBR3, BR474, AU565 cells, Heregulin 10 ng/ml or Herceptin 20 mg/ml
# Experimental: (§1) MDA-MB-435 and MDA-MB-435/HER-2 cells were obtained from Dr. Yu at the UTMD Anderson Cancer Center, Houston, Tex. Cells were grown in RPMI 1640 supplemented as above in 8% CO2 at 37° C. Western blotting was done as follows. Cells were lysed in lysis buffer (50 mM Tris-HCl, pH 7.4, 150 mM sodium chloride, 1 mM EDTA, 1% Nonidet P-40, 1 mM sodium orthovanadate, 1 mM sodium fluoride, 1 mM phenylmethylsulfonyl fluoride, 2 ug/ml pepstatin, 2 ug/ml leupeptin, 2 ug/ml aprotinin), centrifuged at 4° C. for 5 min at 6500 g, and protein concentration was determined with a BioRad Protein Assay Kit (BioRad, Hercules, Cailf.). Proteins were separated by electrophoresis using a Bis-Tris NuPAGE system with 1× MOPS running buffer (Novex, San Diego, Cailf.) and transferred to Hybond C-extra membrane (Amersham Pharmacia Biotech, Piscataway, N.J.). […] The MDA-MB-435/HER-2 cells over-express HER-2/neu 10-fold compared with the parental MDA-MB-435 cell line as determined by Western blot analysis. […]
# (§2) The activated (phosphorylated) state of total AKT (AKT-1 plus AKT-2) in cells over-expressing HER-2/neu was measured to study the functional significance of c-akt in HER-2/neu over-expressing cells and cancers. […] Activated AKT was determined by antibodies that specifically recognize the phosphorylated state of AKT protein. […]
# AKT-1 = assay: Immunoprecipitation and anti-phospho-Akt Western blot, AKT-1
# Experimental: as §1, §2
# AKT-2 = assay: Immunoprecipitation and anti-phospho-Akt Western blot, AKT-2
# Experimental: as §1, §2
# [2] = SKBR3, BR474, AU565 cells, Heregulin 10 ng/ml or Herceptin 20 mg/ml, Western blot
substance,measurement,setting,value
Herceptin: monoclonal antibody against HER-2/neu,phosphorylation of total AKT,[1],decreased
same,AKT-1 phosphorylation,AKT-1; [2],decreased
same,phosphorylated state of AKT-1,AKT-1; exposure for 3 days,down-regulation
same,level of AKT-2 phosphorylation after treatment,AKT-2; [2],remained high
same,phosphorylated state of AKT-2,AKT-2; exposure for 3 days,did not affect
